{"sequences": {"note": "The chains behind the UniProt entries cited, without tags or fusion partners. Where a name states a change or a piece, a line headed by the entry shows the natural chain unless it says otherwise.", "UniProt P35372, whole entry": "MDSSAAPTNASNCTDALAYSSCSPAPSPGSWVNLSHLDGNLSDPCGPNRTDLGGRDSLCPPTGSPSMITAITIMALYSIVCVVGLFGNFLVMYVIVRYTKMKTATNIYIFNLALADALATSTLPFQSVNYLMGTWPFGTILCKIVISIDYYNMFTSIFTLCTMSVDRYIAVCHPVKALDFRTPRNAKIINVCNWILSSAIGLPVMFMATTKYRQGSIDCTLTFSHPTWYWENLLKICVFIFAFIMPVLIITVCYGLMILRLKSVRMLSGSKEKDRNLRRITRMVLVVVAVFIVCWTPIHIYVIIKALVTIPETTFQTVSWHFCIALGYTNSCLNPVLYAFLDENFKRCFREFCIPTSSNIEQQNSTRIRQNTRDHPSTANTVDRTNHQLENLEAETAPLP", "UniProt P41145": "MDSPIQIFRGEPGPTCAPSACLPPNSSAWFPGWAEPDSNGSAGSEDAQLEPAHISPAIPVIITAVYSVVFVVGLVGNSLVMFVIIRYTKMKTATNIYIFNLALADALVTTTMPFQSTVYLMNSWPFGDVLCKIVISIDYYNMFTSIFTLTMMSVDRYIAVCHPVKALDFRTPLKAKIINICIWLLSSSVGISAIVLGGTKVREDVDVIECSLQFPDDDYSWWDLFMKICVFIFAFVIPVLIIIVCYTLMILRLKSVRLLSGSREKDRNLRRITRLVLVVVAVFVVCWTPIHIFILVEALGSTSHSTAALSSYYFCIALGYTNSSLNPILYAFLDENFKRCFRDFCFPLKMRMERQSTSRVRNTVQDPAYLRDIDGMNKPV"}, "source": "paper PMC8434392", "about": "“Harnessing the Anti-Nociceptive Potential of NK2 and NK3 Ligands in the Design of New Multifunctional μ/δ-Opioid Agonist–Neurokinin Antagonist Peptidomimetics” (Molecules, 2021)", "key": {"human recombinant MOR [1]": {"molecular_target": "T1, human recombinant MOR (Homo sapiens, UniProt P35372)", "assay": "Calcium mobilization assay, CHO MOR cells with Gαqi5", "assay_type": "cell-based", "set-up": "expressed in transfected cells; host or cells: CHO cells (gift from Prof. Girolamo Calo', Ferrara University)"}, "human recombinant MOR [2]": {"molecular_target": "T1, human recombinant MOR", "conditions": "intrinsic activity; data from reported literature ref 30; cited from earlier work"}, "human recombinant KOR": {"molecular_target": "T2, human recombinant KOR (Homo sapiens, UniProt P41145)", "T2 construct": "expressed in transfected cells; host or cells: CHO cells (gift from Prof. Girolamo Calo', Ferrara University)", "assay": "Calcium mobilization assay, CHO KOR cells with Gαqi5", "assay_type": "cell-based", "conditions": "intrinsic activity: Emax of ligand / Emax of dynorphin A"}}, "note": "Read-outs that look alike come from different tables or passages of the source. Marks after values point to notes of the source that are not given here.", "data": [{"smiles": "C[C@@H](NC(=O)[C@@H](N)Cc1ccc(O)cc1)C(=O)N[C@@H](Cc1ccccc1)C(=O)NCC(=O)N[C@@H](Cc1ccc(O)cc1)C(=O)N1CCC[C@H]1C(=O)N[C@@H](CO)C(N)=O", "note": "[dermorphin, reference compound]", "values": [{"measurement": "EC50", "setting": "human recombinant MOR [1]; calcium mobilization, CHO MOR Gαqi5, maximum tested concentration 10 µM, read-out: MOR EC50 ± SEM", "value": "4.64 ± 0.57", "unit": "nM"}]}, {"smiles": "CC[C@H](C)[C@H](NC(=O)[C@H](CCCNC(=N)N)NC(=O)[C@H](CCCNC(=N)N)NC(=O)[C@H](CC(C)C)NC(=O)[C@H](Cc1ccccc1)NC(=O)CNC(=O)CNC(=O)[C@@H](N)Cc1ccc(O)cc1)C(=O)N[C@@H](CCCNC(=N)N)C(=O)N1CCC[C@H]1C(=O)N[C@@H](CCCCN)C(=O)N[C@@H](CC(C)C)C(=O)N[C@@H](CCCCN)C(=O)N[C@@H](Cc1c[nH]c2ccccc12)C(=O)N[C@@H](CC(=O)O)C(=O)N[C@@H](CC(N)=O)C(=O)N[C@@H](CCC(N)=O)C(=O)O", "note": "[dynorphin A]", "values": [{"measurement": "MOR α ± SEM", "setting": "human recombinant MOR [2]", "value": "0.83 ± 0.10 ^a"}]}, {"smiles": "Cc1cc(O)cc(C)c1C[C@H](N)C(=O)N[C@H](CCCNC(=N)N)C(=O)N[C@@H](Cc1ccccc1)C(=O)N[C@@H](CCCCN)C(N)=O", "note": "[Dmt-DALDA, H-Dmt-D-Arg-Phe-Lys-NH2, reference compound]", "values": [{"measurement": "MOR α ± SEM", "setting": "human recombinant MOR [1]; intrinsic activity: Emax of ligand / Emax of dermorphin", "value": "1.00 ± 0.06"}, {"measurement": "KOR α ± SEM", "setting": "human recombinant KOR", "value": "0.55 ± 0.02"}]}]}
